Reference: patent US10308689B2, “Dengue virus (DV) polypeptide sequences, T cell epitopes and methods and uses thereof” (LA JOLLA INSTITUTE FOR ALLERGY AND IMMUNOLOGY, priority 2010, dated 2019)

What was measured:
[1] = tested on: PBMC of healthy adult blood donors from Colombo, Sri Lanka; assay: Ex vivo IFNγ ELISPOT, HLA-matched PBMC of Sri Lankan blood donors; format: cell-based, human; design: Total Response per epitope: unit not given here; conditions: for # donors responded: number of donors responding to the epitope
[2] = tested on: splenic CD8+ T cells from DENV2 (S221) infected HLA transgenic IFN-α/βR−/− mice; assay: IFNγ ELISPOT, CD8+ T cells of DENV2 (S221) infected HLA class I transgenic IFN-α/βR−/− mice; format: cell-based, mouse; conditions: HLA B*0702 transgenic IFN-α/βR−/− mice, day 7 after DENV2 S221; IFNγ SFC/10^6 CD8+ T cells
[3] = tested on: splenic CD8+ T cells from DENV3 (D3S5CX) infected HLA transgenic IFN-α/βR−/− mice; assay: IFNγ ELISPOT, CD8+ T cells of DENV3 (D3S5CX) infected HLA class I transgenic IFN-α/βR−/− mice; format: cell-based, mouse; conditions: HLA B*0702 transgenic IFN-α/βR−/− mice, day 7 after DENV3 D3S5CX; SFC/10^6 T cells
[4] = tested on: PBMC from DENV seropositive HLA matched human donors; assay: IFNγ ELISPOT of human PBMC restimulated 7 days with peptide and IL2; format: cell-based
[5] = ex vivo IFNγ ELISPOT, donors expressing HLA B*3501 (supertype B7)
[6] = restricting HLA allele and serotype as given
[7] = total over responding donors, restricting HLA allele and serotype as given
[8] = ex vivo IFNγ ELISPOT, donors expressing HLA B*0702 (supertype B7)
[9] = IFNγ ELISPOT response summed over responding donors, per epitope
[10] = HLA-matched PBMC, proteome-wide screen
[11] = HLA allele, supertype and serotype
[12] = summed IFNγ ELISPOT response per epitope, HLA allele and serotype as given

SMILES | # donors responded [1, 6] | Total Response per epitope [1, 7] | Total Response per epitope [1, 9] | # donors responded [1, 10] | further results
CC[C@H](C)[C@H](NC(=O)[C@@H]1CCCN1C(=O)[C@@H](NC(=O)[C@H](CO)NC(=O)[C@@H](NC(=O)[C@@H]1CCCN1C(=O)[C@@H](N)Cc1ccccc1)C(C)C)[C@@H](C)CC)C(=O)N[C@H](C(=O)N[C@@H](C)C(=O)N[C@@H](C)C(=O)O)[C@@H](C)O | 1 | 71.7 | – | – | T cell response [SFC] [1, 5]: 35 SFC
CC[C@H](C)[C@H](NC(=O)[C@H](Cc1ccccc1)NC(=O)[C@H](C)NC(=O)[C@H](CCSC)NC(=O)[C@@H](NC(=O)[C@H](CC(C)C)NC(=O)[C@H](CCCCN)NC(=O)[C@H](CCSC)NC(=O)[C@@H]1CCCN1C(=O)CN)C(C)C)C(=O)O | 1 | 358.3 | – | – | T cell response [SFC] [1, 8]: 62 SFC
CC[C@H](C)[C@H](N)C(=O)N[C@H](C(=O)N1CCC[C@H]1C(=O)N[C@@H](CCSC)C(=O)N[C@@H](CC(C)C)C(=O)N[C@@H](CCCNC(=N)N)C(=O)N[C@@H](Cc1c[nH]cn1)C(=O)N[C@H](C(=O)N[C@H](C(=O)O)[C@@H](C)CC)[C@@H](C)O)[C@@H](C)O | 1 | 190.0 | – | – | –
CC[C@H](C)[C@H](NC(=O)[C@@H](NC(=O)[C@@H]1CCCN1C(=O)[C@H](CO)NC(=O)CNC(=O)[C@H](CO)NC(=O)[C@@H](NC(=O)CNC(=O)[C@@H]1CCCN1C(=O)[C@@H](N)CCCCN)[C@@H](C)O)[C@@H](C)CC)C(=O)O | 1 | 118.3 | – | – | –
CC[C@H](C)[C@H](NC(=O)[C@H](C)NC(=O)[C@@H]1CCCN1C(=O)[C@@H](NC(=O)[C@H](CCC(N)=O)NC(=O)[C@H](Cc1ccc(O)cc1)NC(=O)[C@H](CCCNC(=N)N)NC(=O)[C@@H](NC(=O)[C@@H]1CCCN1C(=O)[C@@H](N)CC(C)C)[C@@H](C)CC)[C@@H](C)O)C(=O)O | – | – | 894.3 | 5 | –
C[C@H](NC(=O)[C@@H]1CCCN1C(=O)[C@@H](N)CC(N)=O)C(=O)N[C@@H](CCC(N)=O)C(=O)N[C@@H](CCC(=O)O)C(=O)N[C@@H](CC(=O)O)C(=O)N[C@@H](CC(=O)O)C(=O)N[C@@H](CCC(N)=O)C(=O)N[C@@H](Cc1ccc(O)cc1)C(=O)O | – | – | 176.7 | 2 | –
CC[C@H](C)[C@H](NC(=O)[C@@H](NC(=O)[C@@H](N)CCCNC(=N)N)C(C)C)C(=O)N[C@@H](CC(=O)O)C(=O)N1CCC[C@H]1C(=O)N[C@@H](CCCNC(=N)N)C(=O)N[C@@H](CCCNC(=N)N)C(=O)N[C@@H](CS)C(=O)N[C@@H](CC(C)C)C(=O)N[C@@H](CCCCN)C(=O)O | – | – | 258.3 | 3 | –
CC[C@H](C)[C@H](NC(=O)[C@@H](NC(=O)[C@@H](N)CCCNC(=N)N)C(C)C)C(=O)N[C@@H](CC(=O)O)C(=O)N1CCC[C@H]1C(=O)N[C@@H](CCCNC(=N)N)C(=O)N[C@@H](CCCNC(=N)N)C(=O)N[C@@H](CS)C(=O)N[C@@H](CCSC)C(=O)N[C@@H](CCCCN)C(=O)O | – | – | 480.0 | 6 | T cell response [SFC] ([1]; ex vivo IFNγ ELISPOT, donors expressing HLA A*0301 (supertype A3)): 160 SFC; T cell response [SFC] ([1]; ex vivo IFNγ ELISPOT, donors expressing HLA A*1101 (supertype A3)): 93 SFC
CC(C)C[C@H](NC(=O)[C@H](Cc1ccc(O)cc1)NC(=O)[C@@H]1CCCN1C(=O)[C@@H](N)C(C)C)C(=O)NCC(=O)N[C@@H](CCCCN)C(=O)N[C@@H](CCCNC(=N)N)C(=O)N[C@@H](CCC(=O)O)C(=O)N[C@@H](CC(=O)O)C(=O)N[C@@H](CCC(N)=O)C(=O)O | – | – | – | – | # donors responded [1, 11]: 2; Total Response per epitope [1, 12]: 423.3
CC(C)C[C@H](NC(=O)[C@H](CCCCN)NC(=O)[C@@H](NC(=O)[C@H](CCCCN)NC(=O)[C@@H]1CCCN1C(=O)[C@@H](N)Cc1ccc(O)cc1)[C@@H](C)O)C(=O)N[C@H](C(=O)N[C@@H](CC(=O)O)C(=O)N[C@@H](Cc1c[nH]c2ccccc12)C(=O)N[C@@H](CC(=O)O)C(=O)O)[C@@H](C)O | – | – | – | – | # donors responded [1, 11]: 1; Total Response per epitope [1, 12]: 110.0
CSCC[C@H](NC(=O)[C@H](CCC(=O)O)NC(=O)[C@H](C)NC(=O)[C@H](C)NC(=O)[C@@H](NC(=O)[C@@H](NC(=O)[C@H](CCCNC(=N)N)NC(=O)[C@@H](NC(=O)[C@@H]1CCCN1C(=O)[C@H](C)N)[C@@H](C)O)C(C)C)C(C)C)C(=O)O [NS31700-1709] | 8 | 1623.3 | – | – | T cell responses [SFC] mouse [2]: 1064 SFC; T cell response [SFC] [1, 8]: 113 SFC; T cell response [SFC] [1, 5]: 135 SFC; T cell response [SFC] ([1]; per epitope, ex vivo IFNγ SFC/10^6 PBMC): 1623 SFC; # of responders ([1]; responding donors, HLA allele(s)): 8; T cell response [SFC] [3]: 291 SFC; T cell responses [SFC] human ([4]; B*0702 matched DENV seropositive donors, 1 μg/ml peptide 7 days, IFNγ per 10^6 PBMC): 1426 SFC; frequency in humans ([4]; responding B*0702 matched donors (out of 5)): 40% (2 out of 5)
